Results as given in patent US11318157B2, “6-6 bicyclic aromatic ring substituted nucleoside analogues for use as PRMT5 inhibitors” (Janssen Pharmaceutica NV, priority 2015, dated 2022).

The chains behind the UniProt entries cited, without tags or fusion partners.
UniProt O14744, whole entry: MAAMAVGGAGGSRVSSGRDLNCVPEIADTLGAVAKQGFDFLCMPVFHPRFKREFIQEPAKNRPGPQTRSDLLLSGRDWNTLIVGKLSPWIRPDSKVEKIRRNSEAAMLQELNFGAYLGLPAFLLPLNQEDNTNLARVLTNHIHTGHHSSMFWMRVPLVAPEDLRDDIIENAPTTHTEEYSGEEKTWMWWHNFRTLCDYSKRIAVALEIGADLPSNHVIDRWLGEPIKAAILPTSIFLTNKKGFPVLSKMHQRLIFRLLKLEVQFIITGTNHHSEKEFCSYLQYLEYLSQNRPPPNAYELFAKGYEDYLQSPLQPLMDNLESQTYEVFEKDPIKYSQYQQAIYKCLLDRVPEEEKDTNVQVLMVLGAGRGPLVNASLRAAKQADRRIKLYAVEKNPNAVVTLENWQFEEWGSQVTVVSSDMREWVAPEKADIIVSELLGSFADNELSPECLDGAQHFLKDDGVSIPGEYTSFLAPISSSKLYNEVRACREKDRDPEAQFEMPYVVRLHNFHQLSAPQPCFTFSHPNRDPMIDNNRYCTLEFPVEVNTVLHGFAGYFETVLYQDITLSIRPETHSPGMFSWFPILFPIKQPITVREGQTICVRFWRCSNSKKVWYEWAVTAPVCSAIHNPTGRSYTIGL
UniProt Q9BQA1, whole entry partner: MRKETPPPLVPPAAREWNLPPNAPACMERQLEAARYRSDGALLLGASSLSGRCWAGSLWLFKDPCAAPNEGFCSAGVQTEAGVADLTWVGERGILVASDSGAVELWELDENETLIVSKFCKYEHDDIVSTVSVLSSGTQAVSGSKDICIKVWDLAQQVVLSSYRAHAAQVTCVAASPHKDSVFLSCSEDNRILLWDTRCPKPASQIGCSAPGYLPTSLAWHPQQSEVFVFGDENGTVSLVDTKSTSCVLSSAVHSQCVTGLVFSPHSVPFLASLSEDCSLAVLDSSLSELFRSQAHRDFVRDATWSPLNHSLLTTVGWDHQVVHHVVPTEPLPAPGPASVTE

Columns and labels:
[1] = system: nuclear symmetric Arginine dimethylation in A549 cells; experiment: PD assay (assay 2): inhibition of nuclear symmetric Arginine dimethylation (SYM10 immunohistochemistry), 48 h; type: cell-based; details: averaged values
Protocol: Experimental Procedure PD Assay (Assay 2)
A549 cells (ATCC, Cat #CCL-185) were cultured in Dulbecco's Modified Eagle's Medium (DMEM) (Sigma, Cat #D5796), supplemented with 10% Fetal Calf Serum (FCS) (HyClone™, Cat #SV30160.03), 100 mM Sodium Pyruvate (Sigma, Cat #S8636), 200 mM L-Glutamine (Sigma, Cat #G7513) and 50 mg/mL gentamycin (Gibco, Cat #15750-037).
Reagents used for buffers were purchased: Dulbecco's phosphate buffered saline (DPBS) without Ca/Mg (Sigma, Cat #D8537), phosphate buffered saline (PBS) 10× (Roche, Cat #11 666 789 001), Formalin solution 10% (Sigma, HT50-1-128-4L), Methanol 100% (Sigma, Cat #32213-2.5L), Triton X-100 (Acros, Cat #215680010), Bovine Serum Albumin (BSA) (Sigma, Cat #A2153), Alexa fluor 488 goat anti-rabbit antibody (Life Technologies, Cat #A11034), HCS CellMask Deep Red Stain (Life Technologies, Cat #H32721), Hoechst Stain (Life Technologies, Cat #33258), Anti-dimethyl-Arginine, sym (SYM10) antibody (Millipore, 07-412).
Immunohistochemistry Procedure
Cells were plated at 400 cells/40 μL/well in 384 well black μplates clear bottom (Perkin Elmer) and overnight incubated at 37° C., 5% CO2. […] 80 nL of the respective dilution of the compounds was added using the Labcyte POD 810 (Labcyte) reaching a final DMSO concentration of 0.2% in cell culture. After an incubation period of 48 h at 37° C. and 5% CO2, cells were fixed in 10% formalin solution for 15 min at room temperature and 20 min in ice-cold methanol, after which they were washed 3× in DPBS. Subsequently, the cells were blocked for 1 h in blocking buffer (PBS+1% BSA and 0.5% Triton X-100) and incubated overnight at 4° C. with the SYM10 antibody diluted 1/2000 in blocking buffer. The cells were washed 3× with washing buffer (PBS+0.1% Triton X-100) and incubated with the Alexa fluor 488 goat anti-rabbit antibody diluted 1/200 in blocking buffer for 1 h at room temperature. […]
IC50 and pIC50 (−log IC50) values were calculated using the appropriate software.
The pIC50 values in the Table below are averaged values (Co. No. means compound number; n.d. means not determined).

PRMT5-MEP50 enzyme [2] = target: T1, PRMT5-MEP50 enzyme (Homo sapiens, UniProt O14744); experiment: In vitro assay 1b: high throughput mass spectrometer assay of SAH formation, 1.25 nM enzyme, 120 min; type: biochemical; details: averaged values, PRMT5-MEP50, 1.25 nM enzyme
PRMT5-MEP50 enzyme [3] = target: T1, PRMT5-MEP50 enzyme; experiment: In vitro assay 1a: high throughput mass spectrometer assay of SAH formation, 10 nM enzyme, 60 min; type: biochemical; details: averaged values, PRMT5-MEP50, 10 nM enzyme

SMILES | pIC50 Assay 2 [1] | pIC50 Assay 1b (PRMT5-MEP50 enzyme [2]) | pIC50 Assay 1a (PRMT5-MEP50 enzyme [3])
Nc1ccc2ccc(CC[C@H]3O[C@@H](n4ccc5c(N)ncnc54)[C@H](O)[C@@H]3O)cc2n1 | 8.8 | 8.5 | 9.4
Nc1nc2cc(CC[C@H]3C[C@@H](n4ccc5cnccc54)[C@H](O)[C@@H]3O)ccc2cc1Br |  | 10.4 | 
CNc1ccc2ccc(CC[C@H]3C[C@@H](n4ccc5c(Cl)ncnc54)[C@H](O)[C@@H]3O)cc2n1 | 7.7 | 8.4 | 8.4
Nc1ccc2ccc(CC[C@H]3C[C@@H](n4ccc5c(O)ncnc54)[C@H](O)[C@@H]3O)cc2n1 | 7.3 | 6.8 | 7.6
